In test [1] the target is T1, GluN2B receptors (Rattus norvegicus, UniProt P35439+Q00960).
T1 construct: from tissue; host or cells: brain of living male rats (PET imaging)
The test is described as follows: PET displacement / pre-blocking of ^11C-NR2B-Me radioligands with Ro-25-6981, Lassen plots. It counts as in vivo. How it is done: (§1) For radioligand injection, a polyethylene catheter (PE 10) was inserted into the penile vein of a male rat and then secured with tissue adhesive and tape. […] Body temperature was monitored with a rectal probe. All PET scans were performed on a microPET Focus 220 scanner (Siemens Medical Solutions) (7,8). Data were acquired in listmode and reconstructed with Fourier rebinning + 2D filtered backprojection. A transmission scan was acquired before radioligand injection for attenuation correction. Dynamic scanning began at the time of a one-minute intravenous bolus injection of the radioligand under study (55 ± 19 MBq; volume 0.2 to 1.0 mL). The injected mass dose was 3 ± 1 nmol/kg. Challenge agents were administered intravenously 10 minutes before the radioligand for pre-blocking studies or 10 minutes after the radioligand for displacement studies. Tomographic images were analyzed with pixel-wise modeling computer software (PMOD 2.6; PMOD Group). Regions-of-interest in the brain were delineated, and time-activity curves calculated as SUV versus time.
(§2) Pre-blocking and displacement experiments were performed to assess radioligand target engagement and radioligand selectivity in vivo. […] Areas-under the curve (AUCs) from time-activity curves between 20 and 90 minutes were calculated for each radioligand. […] Numerical data are expressed as mean ± S.D. for n>2, or as mean and range for n = 2.

Chains of the proteins cited; added tags and fusions are not shown. Residues count along the entry.
UniProt Q00960, 27-1482: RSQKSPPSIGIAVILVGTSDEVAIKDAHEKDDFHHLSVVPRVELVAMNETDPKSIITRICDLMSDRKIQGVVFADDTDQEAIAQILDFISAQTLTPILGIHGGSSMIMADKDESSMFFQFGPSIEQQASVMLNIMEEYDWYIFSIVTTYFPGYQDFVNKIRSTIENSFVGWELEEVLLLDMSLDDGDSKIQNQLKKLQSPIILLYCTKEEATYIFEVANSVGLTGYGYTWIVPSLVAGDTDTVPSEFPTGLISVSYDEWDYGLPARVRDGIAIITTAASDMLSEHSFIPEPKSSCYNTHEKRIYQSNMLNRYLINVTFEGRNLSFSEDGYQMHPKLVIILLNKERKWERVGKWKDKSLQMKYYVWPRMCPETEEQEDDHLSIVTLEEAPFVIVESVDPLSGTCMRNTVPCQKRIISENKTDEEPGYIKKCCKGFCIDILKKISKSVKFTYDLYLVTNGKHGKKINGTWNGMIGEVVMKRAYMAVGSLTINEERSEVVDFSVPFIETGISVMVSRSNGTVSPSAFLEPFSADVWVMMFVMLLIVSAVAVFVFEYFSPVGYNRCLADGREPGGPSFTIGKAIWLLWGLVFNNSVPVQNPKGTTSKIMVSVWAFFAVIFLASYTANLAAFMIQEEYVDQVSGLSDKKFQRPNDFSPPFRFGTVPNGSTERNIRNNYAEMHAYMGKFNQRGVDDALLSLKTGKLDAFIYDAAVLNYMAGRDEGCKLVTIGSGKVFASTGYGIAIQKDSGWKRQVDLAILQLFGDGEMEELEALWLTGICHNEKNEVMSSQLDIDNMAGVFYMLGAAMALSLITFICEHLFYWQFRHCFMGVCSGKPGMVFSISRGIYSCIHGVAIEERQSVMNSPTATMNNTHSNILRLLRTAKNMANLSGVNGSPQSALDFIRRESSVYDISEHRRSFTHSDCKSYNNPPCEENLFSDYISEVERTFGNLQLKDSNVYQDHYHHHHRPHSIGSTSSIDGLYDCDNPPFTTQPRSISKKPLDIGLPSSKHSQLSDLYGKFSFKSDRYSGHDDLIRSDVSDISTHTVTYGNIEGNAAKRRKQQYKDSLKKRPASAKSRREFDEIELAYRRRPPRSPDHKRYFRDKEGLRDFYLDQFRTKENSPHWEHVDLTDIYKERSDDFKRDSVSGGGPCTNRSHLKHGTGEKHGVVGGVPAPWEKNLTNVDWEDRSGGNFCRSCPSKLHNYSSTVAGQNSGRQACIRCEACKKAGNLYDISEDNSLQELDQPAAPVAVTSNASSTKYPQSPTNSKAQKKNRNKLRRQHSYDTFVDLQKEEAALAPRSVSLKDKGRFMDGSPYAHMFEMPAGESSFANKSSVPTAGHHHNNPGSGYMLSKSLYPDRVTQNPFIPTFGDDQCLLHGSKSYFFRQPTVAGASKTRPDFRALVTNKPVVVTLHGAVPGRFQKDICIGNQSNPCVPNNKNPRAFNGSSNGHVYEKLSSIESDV

In test [2] the target is T1, GluN2B receptors. The test is described as follows: ED50 for pre-blocking of GluN2B radioligand uptake in rat whole brain (PET). It counts as in vivo. How it is done: as §1, §2
Test [3] addresses T1, GluN2B receptors. More on the design: method as in PMID 31924728. Conditions: pre-blocking, radioligand ^11C-(S)-NR2B-SMe; cited from earlier work.

Like-named read-outs stand apart in the source and are kept apart here.

In general, ED50 refers to the dose at which the effect has come halfway, by size or by number of responders. `C[C@@H](CN1CCC(Cc2ccccc2)CC1)[C@@H](O)c1ccc(O)cc1` [Ro-25-6981]: the “reduction of PET signal in whole rat brain relative to baseline” value in test [1] (0.25 mg/kg i.v. 10 min before the radioligand (Fig. 3, ^11C-(−)-NR2B-Me)) is “up to 90%”. Also, the “receptor occupancy from Lassen plot slope” value in test [1] (0.25 mg/kg pre-block, ^11C-(−)-NR2B-Me or ^11C-(+)-NR2B-Me) was “near full receptor occupancy”. The results for the ED50 in test [2] (read-out: ED50 in rat whole brain in vivo ^11C-(+)-NR2B-Me) and in test [2] (read-out: ED50 in rat whole brain in vivo ^11C-(−)-NR2B-Me) were 0.045 µmol/kg and 0.034 µmol/kg, respectively. For the same compound, the “ED50 in rat whole brain in vivo ^11C-(S)-NR2B-SMe” value in test [3] was 29 nmol/kg.
